According to US20250228951A1, “NOVEL-PEPTIDE-BASED ANTICANCER IMMUNOTHERAPEUTIC AGENT” (TWINPIG BIOLAB INC., priority 2022, published 2025):

Assays:
[1] = tested on: M2 macrophages in which ITGB2 expression was suppressed by Crispr/cas9; assay: CCK-8 cell viability in M2 macrophages with ITGB2 expression suppressed by Crispr/cas9; assay type: cell-based, human; conditions: TB511, cells where ITGB2 expression was suppressed
Method: As a cell model used to confirm whether apoptosis was induced through ITGB2 in M2 macrophages, a cell model in which the expression of ITGB2 was suppressed in M2 macrophages was fabricated using Crispr/cas9. Specifically, cells differentiated into M2 macrophages were cultured in an Opti-MEM medium. The Crispr/cas9 was mixed with Cas9 protein V2 (Thermo Fisher scientific) and gRNA (Genscript; ITGB2; Table 7) of a CRISPRMAX™ Reagent kit (Thermo Fisher scientific) and a Cas9 Plus™ Reagent (Thermo Fisher scientific), and a CRISPRMAX™ Reagent was diluted in the Opti-MEM medium, mixed together, and reacted for 5 to 10 minutes, and then added to cells differentiated into M2 macrophages and cultured at 37° C. for 2 to 3 days. Thereafter, the mRNA expression level of ITGB2 was confirmed.
To confirm whether Melittin-dKLA bound to ITGB2 to induce apoptosis in M2 macrophages, Melittin-dKLA (1 μM) was treated for 24 hours to M2 macrophages in which ITGB2 expression was suppressed by Crispr/cas9 fabricated in Example 7-1 above, and cell viability was analyzed using a CCK-8 assay. Specifically, Melittin-dKLA (1 μM) reacted with ITGB2 knockdown macrophages fabricated in Example 7-1 above for 1 hour. After the reaction, the medium was replaced and cultured at 37° C. for 24 hours. […] Absorbance was measured at 450 nm using a microplate reader (Molecular Devices). […]

M2 macrophages = assay: Apoptosis induction by TB511 with or without anti-ITGB2 antibody pretreatment (CCK-8, Western blot, real-time PCR, immunofluorescence); assay type: cell-based, human
Method: To confirm whether TB511 induced apoptosis through ITGB2 in M2 macrophages, the M2 macrophages with suppressed ITGB2 expression fabricated in Example 7-1 were pretreated with an anti-ITGB2 antibody (Polyclonal Rabbit anti-Human ITGB2/CD18 antibody) (LS-C312785; LS Bio) (1 μg) for 1 hour, and then reacted with TB511 (1 μM) for 1 hour. Thereafter, the induction of apoptosis was confirmed by cell viability analysis using the CCK-8 assay, protein expression of caspase-3, an apoptosis marker, was confirmed by Western blot analysis, gene expression of caspase-3, caspase-8, and caspase-9 was confirmed by Real-time PCR, and induction of protein n expression of caspase-3 was confirmed by immunofluorescence.

[2] = tested on: MDA-MB-231 human breast cancer cells, CAFs and THP-1 cells; assay: Breast cancer 3D organoids (spheroids); assay type: cell-based; conditions: 1 μM, 2 μM
Source text: To complement the limitations in vitro and replace in vivo, a 3D organoid mimicking a tumor microenvironment (TME) of breast cancer was fabricated and an effect of TB511 thereon was confirmed. Specifically, an RPMI-1640 culture medium was mixed to contain 3% Matrigel, and MDA-MB-231 human breast cancer cells, CAFs (Cancer-associated Fibroblasts), and THP-1 cells fabricated to express GFP using MDA-MB-231 human breast chancer cells, Cancer-associated Fibroblast (CAF), and Incucyte®Nuclight Lentivirus Reagents (Sartorius) were counted and dispensed into a 96 u-bottom 3-D culture plate (Sbio) at a ratio of 5:1:1 to be 200 μl. […] From day 2 of spheroid formation, TB511 was treated every three days at concentrations of 1 μM, 2 μM, 4 μM, and 8 μM, and images were taken using a fluorescence microscope. After taking bright-field images, the spheroid area was measured using a method for measuring a Ferret diameter. In addition, the average tumor spheroid diameter was measured using an open source, and the average diameter of three spheroids was analyzed with ImageJ (software version 1.47 m). The spheroid size was analyzed by taking bright-field images (20X), and then measuring the average tumor spheroid diameter of three spheroids with ImageJ (software version 1.47 m). […]

[3] = tested on: A549 human lung cancer cells, CAFs, and THP-1 cells; assay: Lung cancer 3D organoids (spheroids); assay type: cell-based; conditions: 1 μM, 2 μM, and 4 μM
Source text: (§1) To complement the limitations in vitro and replace in vivo, a 3D organoid mimicking a tumor microenvironment (TME) of breast cancer was fabricated and an effect of TB511 thereon was confirmed. Specifically, an RPMI-1640 culture medium was mixed to contain 3% Matrigel, and MDA-MB-231 human breast cancer cells, CAFs (Cancer-associated Fibroblasts), and THP-1 cells fabricated to express GFP using MDA-MB-231 human breast chancer cells, Cancer-associated Fibroblast (CAF), and Incucyte®Nuclight Lentivirus Reagents (Sartorius) were counted and dispensed into a 96 u-bottom 3-D culture plate (Sbio) at a ratio of 5:1:1 to be 200 μl. After culturing, the cells were collected by centrifugation at 1200 rpm for 3 minutes and then cultured in a 37° C. incubator for 48 hours to form spheroids. From day 2 of spheroid formation, TB511 was treated every three days at concentrations of 1 μM, 2 μM, 4 μM, and 8 μM, and images were taken using a fluorescence microscope. After taking bright-field images, the spheroid area was measured using a method for measuring a Ferret diameter. In addition, the average tumor spheroid diameter was measured using an open source, and the average diameter of three spheroids was analyzed with ImageJ (software version 1.47 m). The spheroid size was analyzed by taking bright-field images (20X), and then measuring the average tumor spheroid diameter of three spheroids with ImageJ (software version 1.47 m). […] For THP-1, images of GFP fluorescence expressed within the cells were taken using a confocal microscope without performing separate staining, and the number of cells expressing fluorescence was measured.
Lung cancer 3D spheroids were fabricated by mixing A549 human lung cancer cells, CAFs, and THP-1 cells using the method of Example 8-1 above, and then treated with TB511 at concentrations of 1 μM, 2 μM, and 4 μM, respectively, and the effects thereof were analyzed as in Example 8-1 above. […]

[4] = tested on: Carboplatin-resistant A549 cells, CAFs, and THP-1 cells; assay: Anticancer drug-resistant lung cancer 3D organoids (spheroids); assay type: cell-based, human; conditions: 1 μM, 2 μM, and 4 μM
Source text: as §1
(§2) In order to confirm the efficacy of TB511 on Carboplatin-resistant lung cancer, 3D spheroids were formed by mixing Carboplatin-resistant A549 cells, CAFs, and THP-1 cells using the method of Example 8-1 above, and then treated with TB511 at concentrations of 1 μM, 2 μM, and 4 μM, respectively, and the effects thereof were analyzed as in Example 8-1 above. […]

[5] = tested on: Docetaxel-resistant PC3 prostate cancer cells, CAFs, and THP-1 cells; assay: Anticancer drug-resistant prostate cancer 3D organoids (spheroids); assay type: cell-based, human; conditions: 1 μM, 2 μM, and 4 μM
Source text: as §1
as §2, with “Docetaxel-resistant prostate” for “Carboplatin-resistant lung”, “Docetaxel-resistant PC3 prostate cancer” for “Carboplatin-resistant A549”

[6] = TB511 1 μM, M2 macrophages pretreated with the ITGB2 antibody

CC[C@H](C)[C@H](NC(=O)[C@H](CC(C)C)NC(=O)[C@H](C)NC(=O)[C@@H]1CCCN1C(=O)[C@H](CC(C)C)NC(=O)CNC(=O)[C@@H](NC(=O)[C@@H](NC(=O)[C@H](CC(C)C)NC(=O)[C@@H](N)C(C)C)[C@@H](C)O)[C@@H](C)O)C(=O)N[C@@H](CO)C(=O)N[C@@H](Cc1c[nH]c2ccccc12)C(=O)N[C@H](C(=O)N[C@@H](CCCCN)C(=O)N[C@@H](CCCNC(=N)N)C(=O)N[C@@H](CCCCN)C(=O)N[C@@H](CCCNC(=N)N)C(=O)N[C@@H](CCC(N)=O)C(=O)N[C@@H](CCC(N)=O)C(=O)NCC(=O)NCC(=O)NCC(=O)NCC(=O)N[C@@H](CO)C(=O)N[C@H](CCCCN)C(=O)N[C@H](CC(C)C)C(=O)N[C@H](C)C(=O)N[C@H](CCCCN)C(=O)N[C@H](CC(C)C)C(=O)N[C@H](C)C(=O)N[C@H](CCCCN)C(=O)N[C@H](CCCCN)C(=O)N[C@H](CC(C)C)C(=O)N[C@H](C)C(=O)N[C@H](CCCCN)C(=O)N[C@H](CC(C)C)C(=O)N[C@H](C)C(=O)N[C@H](CCCCN)C(=O)O)[C@@H](C)CC [TB511]
cell viability [1]: significantly increased
co-localization of the mitochondria and TB511 (M2 macrophages; M2 macrophages pretreated with ITGB2 antibody compared to cells not pretreated): decreased
cell viability (M2 macrophages; M2 macrophages, single agent (ITGB2 antibody 1 μg or TB511 1 μM)): significantly reduced
caspase-3 expression (Western blot) (M2 macrophages; TB511 1 μM, M2 macrophages): significantly increased
caspase-3 expression (immunofluorescence) (M2 macrophages; TB511 1 μM, M2 macrophages): increased
expression of caspase-3, caspase-8, and caspase-9 (Real-time PCR) (M2 macrophages; TB511 1 μM, M2 macrophages): significantly increased
caspase-3 expression (Western blot) (M2 macrophages; [6]): significantly decreased
caspase-3 expression (immunofluorescence) (M2 macrophages; [6]): decreased
cell viability (M2 macrophages; [6]): significantly increased
expression of caspase-3, caspase-8, and caspase-9 (Real-time PCR) (M2 macrophages; [6]): significantly decreased
size of spheroids ([2]; 4 μM, and 8 μM every three days): decreased in a concentration-dependent manner
number of THP-1 cells expressing GFP fluorescence ([2]; 4 μM, and 8 μM, compared to drug-untreated group): significantly decreased in a concentration-dependent manner
size of spheroids ([3]; compared to untreated group): significantly reduced in a concentration-dependent manner
number of THP-1 cells ([3]; day 10 after drug treatment): significantly decreased in a concentration-dependent manner
tumor proliferation factor ki-67 ([3]; day 10 after drug treatment): decreased in a concentration-dependent manner
size of spheroids ([4]; compared to untreated group): significantly reduced in a TB511 concentration-dependent manner
number of THP-1 cells ([4]; day 10 after drug treatment): significantly decreased in a concentration-dependent manner
tumor proliferation factor ki-67 ([4]; day 10 after drug treatment): significantly decreased from 2 μM
size of spheroids ([5]; compared to untreated group): significantly reduced in a TB511 concentration-dependent manner
number of THP-1 cells ([5]; day 10 after drug treatment): significantly decreased in a concentration-dependent manner
tumor proliferation factor ki-67 ([5]; day 10 after drug treatment): tended to be reduced
